Data: PubChem BioAssay AID651699 (Sanford-Burnham Center for Chemical Genomics, 2012)
This is a selection; strong and weak results do not stand in their true shares. Some salts or complexes appear as unconnected parts, following the source record. The source made the active and inactive calls. Rule as the data show it: active = inhibition above about 36%; inactive = the rest.

The chains behind the UniProt entries cited, without tags or fusion partners.
UniProt P61081, whole entry, looked up: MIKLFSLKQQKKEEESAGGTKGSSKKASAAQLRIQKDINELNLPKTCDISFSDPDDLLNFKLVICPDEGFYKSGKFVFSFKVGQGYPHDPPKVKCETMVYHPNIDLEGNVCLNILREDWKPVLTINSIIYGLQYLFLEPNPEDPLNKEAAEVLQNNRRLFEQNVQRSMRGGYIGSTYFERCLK
UniProt Q13564, whole entry, looked up: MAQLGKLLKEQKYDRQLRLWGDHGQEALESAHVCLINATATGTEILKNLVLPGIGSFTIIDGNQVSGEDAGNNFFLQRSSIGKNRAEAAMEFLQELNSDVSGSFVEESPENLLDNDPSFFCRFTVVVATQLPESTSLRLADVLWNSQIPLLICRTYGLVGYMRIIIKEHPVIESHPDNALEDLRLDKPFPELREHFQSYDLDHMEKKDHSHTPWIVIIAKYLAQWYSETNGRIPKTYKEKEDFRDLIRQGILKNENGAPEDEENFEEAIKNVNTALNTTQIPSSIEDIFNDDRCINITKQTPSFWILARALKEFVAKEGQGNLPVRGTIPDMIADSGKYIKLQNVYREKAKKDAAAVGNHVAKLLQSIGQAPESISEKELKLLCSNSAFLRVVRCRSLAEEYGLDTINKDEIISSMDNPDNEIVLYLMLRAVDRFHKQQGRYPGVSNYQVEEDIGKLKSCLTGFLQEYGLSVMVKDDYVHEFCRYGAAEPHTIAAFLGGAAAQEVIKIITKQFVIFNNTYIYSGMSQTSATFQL

Biological target: NEDD8-conjugating enzyme Ubc12 (Homo sapiens) + NEDD8-activating enzyme E1 regulatory subunit (Homo sapiens) (UniProt P61081+Q13564)
Experiment: NEDD8 transfer onto cullin, blockade – biochemical, TR-FRET, uHTS, NAE and Ubc12, primary screen (AID 651699)
Settings: TR-FRET cullin neddylation, at 25 µM, stronger effect = higher value

Structure (SMILES) | inhibition
Cc1cc(-c2cccc3ccccc23)c(C)cn1.O=[N+]([O-])c1cc([N+](=O)[O-])c(O)c([N+](=O)[O-])c1 | inactive: -14.3%
Cc1c(C(c2ccc3c(c2)OCO3)c2c(C)n(C)n(-c3ccccc3)c2=O)c(=O)n(-c2ccccc2)n1C.O=[N+]([O-])c1cc([N+](=O)[O-])c(O)c([N+](=O)[O-])c1 | inactive: -5.7%
COc1ccc(OP(C)(=O)Nc2cccc(Br)c2)cc1 (stereo unspecified) | inactive: 14%
CN(C)CCOC(=O)C(O)(c1ccccc1)C1CCCCC1 (stereo unspecified) | inactive: 1.11%
COc1ccc(NP(C)(=O)Oc2ccccc2OC)cc1 (stereo unspecified) | inactive: -5.48%
Cc1c([N+](=O)[O-])cc([N+](=O)[O-])c(Br)c1[N+](=O)[O-] | inactive: -35.9%
CCN(CC)CCCOC(=O)C(O)(c1ccccc1)C1CCCCC1 (stereo unspecified) | inactive: 4.22%
CP(=O)(Nc1ccccc1)Oc1ccc(F)cc1 (stereo unspecified) | inactive: -10.4%
O=[N+]([O-])c1cc([N+](=O)[O-])c(OC2CCCCC2O)c([N+](=O)[O-])c1 (stereo unspecified) | inactive: -33.9%
CCCCCOc1ccc(NP(C)(=O)Oc2ccc(Cl)cc2Cl)cc1 (stereo unspecified) | inactive: 4.67%
CCN(CC)CCCNc1ccccc1[N+](=O)[O-].O=[N+]([O-])c1cc([N+](=O)[O-])c(O)c([N+](=O)[O-])c1 | inactive: -42.4%
CCOC(=O)c1ccc(NP(C)(=O)Oc2ccc(F)cc2)cc1 (stereo unspecified) | inactive: -2.76%
COc1ccc(OP(C)(=O)Nc2ccc(SC(F)(F)F)cc2)cc1 (stereo unspecified) | inactive: 4.14%
O=C(OC1CN2CCC1CC2)c1ccc([N+](=O)[O-])cc1 (stereo unspecified) | inactive: -42.9%
O=C(OCCN1CCN(CCOCc2ccccc2)CC1)C(O)(c1ccccc1)c1ccccc1 | inactive: 1.06%
COc1ccc2c(c1O)-c1c(O)c(OC)cc3c1[C@H](C2)[N+](C)(C)CC3.O=[N+]([O-])c1cc([N+](=O)[O-])c([O-])c([N+](=O)[O-])c1[O-] | inactive: 66.9%
O=[N+]([O-])c1cc([N+](=O)[O-])c(Nc2ccc(Cl)cc2)c([N+](=O)[O-])c1 | inactive: -76.8%
CP(=O)(Nc1ccccc1F)Oc1ccccc1 (stereo unspecified) | inactive: -1.48%
CC(C)c1ccc(OP(C)(=O)Nc2ccc(SC(F)(F)F)cc2)cc1 (stereo unspecified) | inactive: -1.62%
Cc1c(NP(C)(=O)Oc2ccc(C(C)C)cc2)c(=O)n(-c2ccccc2)n1C (stereo unspecified) | inactive: -3.04%
O=[N+]([O-])c1cc([N+](=O)[O-])c(Nc2ccccn2)c([N+](=O)[O-])c1 | inactive: -45.2%
COc1ccccc1OP(C)(=O)Nc1ccc(C)cc1C (stereo unspecified) | inactive: 5.29%
CP(=O)(Nc1ccccn1)Oc1ccccc1 (stereo unspecified) | inactive: -3.37%

Structure (SMILES) | inhibition
CCc1ccc(OP(C)(=O)O)cc1 | inactive: 1.89%
COc1ccccc1OP(C)(=O)Nc1ccc(Br)cc1 (stereo unspecified) | inactive: -2.78%
COc1ccc(OP(C)(=O)Nc2ccccn2)cc1 (stereo unspecified) | inactive: 0.83%
CN(C)CCOC(=O)C(O)(c1ccccc1)C1CCCC1 (stereo unspecified) | inactive: -3.92%
CP(=O)(Nc1ccc(Cl)cc1Cl)Oc1ccccc1 (stereo unspecified) | inactive: 7.04%
CCCCCCCCCCCCCCCC1C[N+](C)(C)CCOP(C)(=O)O1 (stereo unspecified) | inactive: 0.79%
CP(=O)(OCCOc1ccccc1)OCCOc1ccccc1 | inactive: 3.04%
Cc1cc(C)cc(OP(C)(=O)Nc2cccc(C(F)(F)F)c2)c1 (stereo unspecified) | inactive: 9.71%
O=C1C(O)=C([N+](=O)[O-])C(=O)C(O)=C1[N+](=O)[O-] | inactive: -19.9%
COc1ccccc1OP(C)(=O)Nc1ccc(C)c(C)c1 (stereo unspecified) | inactive: 3.48%
COc1ccc(OP(C)(=O)Nc2ccccc2Br)cc1 (stereo unspecified) | inactive: 3.39%
CCOC(=O)c1ccc(NP(C)(=O)Oc2ccc(Cl)cc2)cc1 (stereo unspecified) | inactive: 6.95%
CP(=O)(OC12CC3CC(CC(C3)C1)C2)OC12CC3CC(CC(C3)C1)C2 | inactive: -1.46%
COc1ccccc1OP(C)(=O)Nc1ccccc1Br (stereo unspecified) | inactive: -12.8%
CC(C)(C)c1ccc(OP(C)(=O)O)cc1 | inactive: -4.41%
CP(=O)(Nc1ccc(Cl)cc1)Oc1ccc(F)cc1 (stereo unspecified) | inactive: 8.4%
CN(C)C(=O)c1c([N+](=O)[O-])cc([N+](=O)[O-])cc1[N+](=O)[O-] | inactive: -30.8%
COc1ccc(OP(C)(=O)Nc2ccc(Br)cc2)cc1 (stereo unspecified) | inactive: 3.5%
CCN(CC)CC(O)COC(=O)C(O)(c1ccccc1)C1CCCCC1 (stereo unspecified) | inactive: 6.12%
O=C(OCCCN1CCCC1)C(O)(c1ccccc1)C1CCCCC1 (stereo unspecified) | inactive: -2.45%
COc1ccccc1OP(C)(=O)Nc1c(C)n(C)n(-c2ccccc2)c1=O (stereo unspecified) | inactive: -1.08%
CCc1ccc(OP(C)(=O)Nc2cccnc2)cc1 (stereo unspecified) | inactive: 0%
CP(=O)(Oc1ccccc1)N1CCOC1=O (stereo unspecified) | inactive: 7.08%
